This note sets out measurements from patent publication US9221831B2, “Buprenorphine analogs” (dated 2015).

Sequences of proteins named here, by UniProt entry; tags and fusion partners are left off.
UniProt P41146, whole entry: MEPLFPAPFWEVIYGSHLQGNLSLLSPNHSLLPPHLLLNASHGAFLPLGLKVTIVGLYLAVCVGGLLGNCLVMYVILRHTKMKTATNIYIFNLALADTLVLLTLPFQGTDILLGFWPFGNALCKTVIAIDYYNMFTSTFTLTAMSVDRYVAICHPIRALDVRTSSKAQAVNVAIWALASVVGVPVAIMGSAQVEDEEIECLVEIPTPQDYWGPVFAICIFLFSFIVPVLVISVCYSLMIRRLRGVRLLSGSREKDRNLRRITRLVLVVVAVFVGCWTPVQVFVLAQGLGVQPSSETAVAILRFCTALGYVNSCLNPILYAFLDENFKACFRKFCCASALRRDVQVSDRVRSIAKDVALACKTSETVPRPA
UniProt P41145, whole entry: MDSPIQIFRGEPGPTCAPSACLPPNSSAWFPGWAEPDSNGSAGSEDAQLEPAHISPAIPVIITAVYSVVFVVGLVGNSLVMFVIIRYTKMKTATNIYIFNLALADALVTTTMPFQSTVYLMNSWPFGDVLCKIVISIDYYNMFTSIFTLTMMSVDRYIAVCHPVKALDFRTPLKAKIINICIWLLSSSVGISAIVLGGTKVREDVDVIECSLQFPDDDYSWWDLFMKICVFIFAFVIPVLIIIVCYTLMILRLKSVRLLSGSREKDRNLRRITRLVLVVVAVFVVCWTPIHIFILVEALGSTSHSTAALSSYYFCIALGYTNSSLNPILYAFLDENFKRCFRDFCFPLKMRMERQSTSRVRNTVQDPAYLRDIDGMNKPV
UniProt P35372, whole entry: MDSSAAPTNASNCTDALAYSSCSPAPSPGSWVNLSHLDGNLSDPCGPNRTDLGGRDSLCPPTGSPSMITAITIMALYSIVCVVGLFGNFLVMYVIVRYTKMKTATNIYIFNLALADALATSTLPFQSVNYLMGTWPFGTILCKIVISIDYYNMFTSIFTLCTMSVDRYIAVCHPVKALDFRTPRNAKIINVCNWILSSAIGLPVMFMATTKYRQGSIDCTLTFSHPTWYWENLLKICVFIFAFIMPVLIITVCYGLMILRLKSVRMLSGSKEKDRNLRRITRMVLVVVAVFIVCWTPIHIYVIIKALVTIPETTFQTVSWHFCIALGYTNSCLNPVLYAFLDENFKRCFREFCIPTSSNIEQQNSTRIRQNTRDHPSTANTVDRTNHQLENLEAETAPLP

The target of assay [1] is T1, human opioid receptor-like (ORL-1) (Homo sapiens (Human), UniProt P41146). Briefly: ORL-1 receptor binding assay ([3H]-nociceptin).
The next assay deals with κ opioid receptor (Homo sapiens (Human), UniProt P41145). Briefly: κ-opioid receptor functional assay ([35S]GTPγS). Conditions: [35S]GTPγS functional assay. Background: Binding of GTPγS marks nucleotide exchange on a G protein.
Assay [2] deals with T2, δ opioid receptor (Homo sapiens (Human), UniProt P41143). Briefly: δ-opioid receptor binding assay ([3H]-Naltrindole dose-displacement).
Assay [3] addresses T1, human opioid receptor-like (ORL-1). Briefly: ORL-1 receptor functional assay ([35S]GTPγS). Conditions: [35S]GTPγS functional assay.
Assay [4] has as its target T2, δ opioid receptor. Briefly: δ-opioid receptor functional assay ([35S]GTPγS). To be noted: [35S]GTPγS functional assay.
The target of another assay is μ-opioid receptor (Homo sapiens (Human), UniProt P35372). Briefly: μ-opioid receptor functional assay ([35S]GTPγS). To be noted: [35S]GTPγS functional assay.

On to `COc1ccc2c3c1O[C@H]1[C@@]4(OC)CC[C@@]5(C[C@@H]4CSc4nncs4)[C@@H](C2)N(C)CC[C@]315`, for which the “Binding Affinity, ORL-1” value in assay [1] was “Inactive”. Also, at κ opioid receptor, the “GTPγS Opioid Receptor κ Emax” value is listed as 38.33%. Besides, on δ opioid receptor [2], the “Binding Affinity, Opioid Receptor δ” value was “Inactive”.
Regarding `CO[C@]12CC[C@@]3(C[C@@H]1COCc1ccccc1)[C@H]1Cc4ccc(F)c5c4[C@@]3(CCN1C)[C@H]2O5`, the “GTPγS ORL-1 Emax” value in assay [3] came out at 50.00%. Besides, the “GTPγS Opioid Receptor δ Emax” value on δ opioid receptor [4] is given as 76.00%. For the same compound, at κ opioid receptor, the “GTPγS Opioid Receptor κ Emax” value is reported as 77.33%.
As to `CO[C@]12CC[C@@]3(C[C@@H]1COCc1ccccc1)[C@H]1Cc4ccc(O)c5c4[C@@]3(CCN1)[C@H]2O5`, in assay [3], the “GTPγS ORL-1 Emax” value is given as 68.50%. Also, the “GTPγS Opioid Receptor δ Emax” value at δ opioid receptor [4] was 115.33%. Besides, the “GTPγS Opioid Receptor κ Emax” value on κ opioid receptor is reported as 96.00%.
For the compound `COc1ccc2c3c1O[C@H]1[C@@]4(OC)CC[C@@]5(C[C@@H]4CNCc4ccccc4)[C@@H](C2)N(CC2CC2)CC[C@]315`, the “GTPγS ORL-1 Emax” value in assay [3] is on record as 99.00%. Further, the “GTPγS Opioid Receptor μ Emax” value on μ-opioid receptor is recorded as 53.50%. The “GTPγS Opioid Receptor δ Emax” value on δ opioid receptor [4] is given as 82.25%. For the same compound, the “GTPγS Opioid Receptor κ Emax” value on κ opioid receptor was determined as 98.25%.
Turning to `CO[C@]12CC[C@@]3(C[C@@H]1COCc1ccccc1)[C@H]1Cc4ccc(F)c5c4[C@@]3(CCN1CC1CC1)[C@H]2O5`, in assay [3], the “GTPγS ORL-1 Emax” value is reported as 37.00%. Further, at μ-opioid receptor, the “GTPγS Opioid Receptor μ Emax” value was found to be 20.33%. Moreover, the “GTPγS Opioid Receptor δ Emax” value on δ opioid receptor [4] was 108.00%. The “GTPγS Opioid Receptor κ Emax” value on κ opioid receptor was determined as 85.33%.
For the compound `CO[C@]12CC[C@@]3(C[C@@H]1COCc1ccccc1C)[C@H]1Cc4ccc(OCCO)c5c4[C@@]3(CCN1C)[C@H]2O5`, in assay [3], the “GTPγS ORL-1 Emax” value was 65.25%. For the same compound, the “GTPγS Opioid Receptor δ Emax” value at δ opioid receptor [4] turned out to be 74.67%. Further, on κ opioid receptor, the “GTPγS Opioid Receptor κ Emax” value was found to be 121.67%.
In the case of `C=Cc1ccc2c3c1O[C@H]1[C@@]4(OC)CC[C@@]5(C[C@@H]4COCc4ccccc4)[C@@H](C2)N(C)CC[C@]315`, in assay [3], the “GTPγS ORL-1 Emax” value is on record as 35.67%. The “GTPγS Opioid Receptor δ Emax” value at δ opioid receptor [4] came out at 87.67%. In addition, the “GTPγS Opioid Receptor κ Emax” value at κ opioid receptor amounted to 82.67%.
